Laboratory results from US9289430B2, “Compounds and methods for inhibiting phosphate transport” (Ardelyx, Inc., priority 2010, dated 2016).

Protein sequences, listed by entry. Tags and fused reporters are not part of them.
UniProt Q9JJ09, whole entry: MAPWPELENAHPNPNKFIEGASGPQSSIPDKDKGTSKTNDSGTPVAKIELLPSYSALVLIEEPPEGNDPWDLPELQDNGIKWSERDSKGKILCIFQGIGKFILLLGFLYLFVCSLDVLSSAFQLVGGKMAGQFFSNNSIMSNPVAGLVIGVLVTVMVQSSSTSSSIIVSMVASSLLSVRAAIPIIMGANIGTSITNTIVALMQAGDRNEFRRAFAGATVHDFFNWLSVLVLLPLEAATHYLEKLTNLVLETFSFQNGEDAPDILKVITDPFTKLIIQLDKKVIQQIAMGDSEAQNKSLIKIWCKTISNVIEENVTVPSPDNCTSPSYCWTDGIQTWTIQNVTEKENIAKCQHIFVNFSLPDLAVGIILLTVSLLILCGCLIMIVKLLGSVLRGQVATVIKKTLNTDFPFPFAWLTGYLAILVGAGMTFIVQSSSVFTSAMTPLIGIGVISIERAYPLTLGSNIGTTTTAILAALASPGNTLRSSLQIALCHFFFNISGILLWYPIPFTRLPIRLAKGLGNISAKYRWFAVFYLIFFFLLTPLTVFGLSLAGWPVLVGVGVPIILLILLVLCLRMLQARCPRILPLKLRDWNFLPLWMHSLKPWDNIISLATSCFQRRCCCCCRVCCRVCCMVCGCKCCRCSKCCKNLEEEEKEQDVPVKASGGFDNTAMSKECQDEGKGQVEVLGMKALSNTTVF

Target: rat NaP2b (SLC34A2) (Rattus norvegicus, UniProt Q9JJ09)
Test: NaP2b-mediated Pi transport: 33P phosphate uptake into transfected HEK293 cells
Settings: 100 uM KH2PO4, PiT-silencing agent

- pIC50 range for rat Nap2b: 5.1-6.0
SMILES: O=C(O)CCSCc1cccc(C(=O)Nc2ccc(N3CCCCC3)cc2C(=O)Nc2cn(-c3cccc(C(F)(F)F)c3)cn2)c1
